From ChEMBL document CHEMBL1138586 (Bioorg Med Chem Lett, 2009)

Sequences of proteins named here, by UniProt entry; tags and fusion partners are left off. Residues count along the entry.
UniProt P00747, 97-580 limits assumed: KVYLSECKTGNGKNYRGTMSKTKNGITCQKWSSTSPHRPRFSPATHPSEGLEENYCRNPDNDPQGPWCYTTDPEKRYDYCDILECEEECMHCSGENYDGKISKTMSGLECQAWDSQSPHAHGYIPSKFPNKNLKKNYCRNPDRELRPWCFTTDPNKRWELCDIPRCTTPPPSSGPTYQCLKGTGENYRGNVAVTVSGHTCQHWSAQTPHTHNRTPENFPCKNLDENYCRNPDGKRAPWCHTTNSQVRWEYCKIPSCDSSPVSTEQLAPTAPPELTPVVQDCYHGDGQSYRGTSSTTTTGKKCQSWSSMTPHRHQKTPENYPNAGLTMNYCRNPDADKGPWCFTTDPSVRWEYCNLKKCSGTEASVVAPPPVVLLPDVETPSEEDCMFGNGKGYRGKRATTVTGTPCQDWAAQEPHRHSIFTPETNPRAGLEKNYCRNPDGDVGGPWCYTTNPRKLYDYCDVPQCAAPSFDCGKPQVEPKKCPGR
UniProt P00747, 581-810 limits assumed: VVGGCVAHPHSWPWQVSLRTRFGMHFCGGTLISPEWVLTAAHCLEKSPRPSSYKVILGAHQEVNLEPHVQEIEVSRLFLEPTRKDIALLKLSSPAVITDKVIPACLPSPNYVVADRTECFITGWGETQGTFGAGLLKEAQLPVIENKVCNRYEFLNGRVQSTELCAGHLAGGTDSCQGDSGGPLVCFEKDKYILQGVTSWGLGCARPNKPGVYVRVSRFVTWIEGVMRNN

Target: Plasminogen (Homo sapiens, UniProt P00747)
Assay: Inhibition of plasmin

IC50: > 10 µM
Structure (SMILES): COc1ccc(NC(=O)c2ccc(C(=N)N(C)C)cc2F)c(C(=O)Nc2ccc(Cl)cn2)c1
